Assay results published in BindingDB's records for patent US8987315 (Innocrin Pharmaceuticals, 2015).

By UniProt entry, the sequences of proteins in these tests, tags left out.
UniProt P08684, whole entry: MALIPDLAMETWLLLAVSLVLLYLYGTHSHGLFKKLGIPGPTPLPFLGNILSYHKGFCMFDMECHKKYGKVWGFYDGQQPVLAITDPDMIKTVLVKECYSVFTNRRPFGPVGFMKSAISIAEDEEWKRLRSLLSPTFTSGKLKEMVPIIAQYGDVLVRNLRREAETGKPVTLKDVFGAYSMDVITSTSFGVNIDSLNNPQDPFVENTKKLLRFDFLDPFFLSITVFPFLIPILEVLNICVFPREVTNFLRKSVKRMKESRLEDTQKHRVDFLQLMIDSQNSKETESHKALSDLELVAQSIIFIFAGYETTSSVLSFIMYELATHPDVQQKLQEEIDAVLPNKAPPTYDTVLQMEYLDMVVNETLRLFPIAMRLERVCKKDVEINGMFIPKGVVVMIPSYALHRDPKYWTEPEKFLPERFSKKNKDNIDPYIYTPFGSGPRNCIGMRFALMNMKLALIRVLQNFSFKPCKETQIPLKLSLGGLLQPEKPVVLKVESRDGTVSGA

Target: Cytochrome P450 3A4 (Homo sapiens, UniProt P08684)

Compound | IC50
CC(C)C(c1ccc2cc(OC(F)F)ccc2c1)n1ncnn1 (configuration not stated) [US8987315, 4] | > 200 µM
CC(C)C(c1ccc2cc(OCC(F)(F)F)ccc2c1)n1ncnn1 (configuration not stated) [US8987315, 2] | > 60 µM
